The values that follow are results of earlier work, collected in PMC4276913.

Chains of the proteins cited; added tags and fusions are not shown. Residues count along the entry.
UniProt Q15819, 2-145: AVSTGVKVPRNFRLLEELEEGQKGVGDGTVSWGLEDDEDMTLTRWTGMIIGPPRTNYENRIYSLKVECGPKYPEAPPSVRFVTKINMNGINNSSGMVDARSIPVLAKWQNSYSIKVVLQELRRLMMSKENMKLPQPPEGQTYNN

For orientation: Kd means the concentration at which binding is half-saturated.

One series addresses Mms2 (Homo sapiens) (UniProt Q15819).
The target of series [1] is Mms2-Ubc13 (Homo sapiens) (UniProt Q15819).

On to ubiquitin (from UniProt P0CG48), for which the Kd with Mms2 (Homo sapiens) was 98 µM; in series [1] it was 28 µM.
